Source: BindingDB's records for 23453838

The chains behind the UniProt entries cited, without tags or fusion partners. Residues count along the entry.
UniProt P37136, 32-614 limits assumed: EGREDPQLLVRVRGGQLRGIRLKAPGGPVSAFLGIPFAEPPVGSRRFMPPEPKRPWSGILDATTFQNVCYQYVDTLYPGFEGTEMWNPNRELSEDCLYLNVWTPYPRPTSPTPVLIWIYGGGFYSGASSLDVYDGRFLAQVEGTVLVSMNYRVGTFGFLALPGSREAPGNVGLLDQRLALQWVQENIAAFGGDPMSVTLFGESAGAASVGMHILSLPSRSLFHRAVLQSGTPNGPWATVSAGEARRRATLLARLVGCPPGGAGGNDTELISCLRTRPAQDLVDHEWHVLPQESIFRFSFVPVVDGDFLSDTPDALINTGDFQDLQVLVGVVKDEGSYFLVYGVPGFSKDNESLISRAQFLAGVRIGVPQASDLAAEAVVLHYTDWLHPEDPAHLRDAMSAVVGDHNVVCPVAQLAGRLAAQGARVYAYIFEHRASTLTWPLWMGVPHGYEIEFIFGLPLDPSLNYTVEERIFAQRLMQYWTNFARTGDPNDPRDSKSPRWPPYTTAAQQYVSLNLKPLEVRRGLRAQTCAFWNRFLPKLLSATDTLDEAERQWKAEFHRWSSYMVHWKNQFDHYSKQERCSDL

Target: Acetylcholinesterase (Rattus norvegicus, UniProt P37136)
Experiment: ASSAY_NAME: ChEMBL_954151 (CHEMBL2351424) […]

CCOP(=O)(OCC)Oc1ccc([N+](=O)[O-])cc1
kon (M-1-s-1): 567 M⁻¹ s⁻¹

Some compounds may have been tested in ways that are not shown here.
